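In this assay, cells in 96-well plates receive the compound at five concentrations for 48 hours. Endpoints are linearly interpolated between the surrounding concentrations. Here, GI50 denotes the concentration required for 50% inhibition of growth. TGI: concentration producing complete growth inhibition.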

These results are taken from PubChem BioAssay (NCI).

In this assay the test system is MDA-MB-468 breast. The experiment in a line: NCI-60 cell line screen, 48 h.

On to `O=[N+]([O-])c1cccc(Oc2ccc([N+](=O)[O-])cc2[N+](=O)[O-])c1`, for which the GI50 is 1510 nM and the TGI is 3290 nM.
